These results are taken from ChEMBL document CHEMBL1127794, “Structure-activity relationships of 1,3-dialkylxanthine derivatives at rat A3 adenosine receptors” (J Med Chem, 1994).

Protein sequences, listed by entry. Tags and fused reporters are not part of them.
UniProt P28647, whole entry: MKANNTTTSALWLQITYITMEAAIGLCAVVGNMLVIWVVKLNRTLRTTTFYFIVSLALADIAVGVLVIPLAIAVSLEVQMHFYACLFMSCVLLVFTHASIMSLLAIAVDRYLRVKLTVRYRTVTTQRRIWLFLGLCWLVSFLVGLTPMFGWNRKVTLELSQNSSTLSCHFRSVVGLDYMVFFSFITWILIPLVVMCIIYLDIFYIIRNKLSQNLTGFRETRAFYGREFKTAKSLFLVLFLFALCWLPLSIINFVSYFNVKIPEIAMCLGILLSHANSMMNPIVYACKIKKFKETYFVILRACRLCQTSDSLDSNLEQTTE

This test concerns the target Adenosine receptor A3 (Rattus norvegicus) (UniProt P28647). Nature of the test: Tested for the binding affinity, for displacement of [125I]AB-MECA in membranes of CHO cells stably transfected with the rat A3-cDNA at the 10e-4 concentration (M). The test is classed as cell membranes. A general note: Loss of bound radioactivity is the signal in a displacement assay; it reports binding, not function.

The inhibition is the share of the control response that was lost under treatment. For the molecule `Cn1c(=O)c2[nH]cnc2n(C)c1=O`, the inhibition is 23.1%.
